Laboratory results published in PubChem BioAssay (Tox21).
Only a part is listed here, and it is no random draw. Records with an inconclusive call do not appear. Calls of active or inactive are those of the source. Unless noted, the call rests on the fitted dose curve; in most records, active means well fitted curve in the direction sought with a large enough effect in the repeat runs; inconclusive means weak or mixed curves; inactive means no such curve, though single readings can be large; an effect the other way counts as inactive or inconclusive.

How the values were obtained:
[1] = qHTS assay to identify small molecule antagonists of the TGF-beta/Smad signaling pathway - cell viability counter screen (AID 1346824); conditions: SBE-bla HEK293T viability, CellTiter-Glo luminescence; further: nearly all actives have a fitted effect of over 50% in size
In short: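 SBE-bla HEK 293T cells, incubated overnight, then compound plus 0.25 ng/mL TGF-beta1 (stock added) for 5 hr at 37 C. Viability was read in the same wells by CellTiter-Glo luminescence after 30 min at room temperature.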

[2] = qHTS assay to identify small molecule agonists of the TGF-beta/Smad signaling pathway - cell viability counter screen (AID 1346829); conditions: SBE-bla HEK293T viability, CellTiter-Glo luminescence, 5 h; further: top concentration of the series differs between compounds; nearly all actives have a fitted effect of over 45% in size
In short: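 Luminescence from CellTiter-Glo, read after a 30 min room-temperature incubation, gives cell viability of SBE-bla HEK 293T cells treated 5 hr with compounds at 37 C.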

[3] = qHTS assay to identify small molecule agonists of the TGF-beta/Smad signaling pathway (AID 1346859; active means well fitted activation curve with a large enough effect in the signal ratio in the repeat runs, not every such curve was filed as active; the % refers to the signal ratio); conditions: SBE-bla HEK293T, TGF-beta/Smad beta-lactamase reporter, 5 h
In short: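 Screening used HEK 293T SBE-bla cells at 4,000/well. Test agents: 5 hr, 37 C. Detection: FRET substrate, 2 hr RT, then excitation 405 nm with emissions at 460 and 530 nm.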

[4] = Caspase-3/7 induction in HepG2 cells by small molecules, qHTS cell viability counter screen (AID 1346981); conditions: CellTiter-Fluor fluorescence, 17 h, at 42.5 µM (top of the series); further: nearly all actives have a fitted effect of over 30% in size
In short: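 HepG2, WT, 2,000 cells/well; 5 hr pre-incubation 37 C/5% CO2; compound pin-transferred from DMSO; 16 hr exposure; CellTiter-Fluor, 1 hr; fluorescence read.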
On the % scale 0 is the no-effect control and ±100 the full control effect.

OCCSCCO
inactive: viability change, negative = cytotoxic ([1]; at 35.3 µM (top of the series)) 0.114% | viability change, negative = cytotoxic ([1]; at 76.8 µM (top of the series)) 4.25% | activity change, negative = cytotoxicity ([2]; at 35.3 µM (top of the series)) -2.27% | activity change, negative = cytotoxicity ([2]; at 76.8 µM (top of the series)) -3.9% | activation ([3]; at 35.3 µM (top of the series)) 1.91% | activation ([3]; at 76.8 µM (top of the series)) 0.783% | activity change, negative = cytotoxicity [4] 0.292%

C/C1=C2N=C(/C=C3N=C(/C(C)=C4\[N-][C@@](C)([C@@H]5N=C1[C@](C)(CCC(=O)NC[C@@H](C)OP(=O)([O-])O[C@H]1[C@@H](O)[C@@H](n6cnc7cc(C)c(C)cc76)O[C@@H]1CO)[C@H]5CC(N)=O)[C@@](C)(CC(N)=O)[C@@H]4CCC(N)=O)[C@@](C)(CC(N)=O)[C@@H]\3CCC(N)=O)C(C)(C)[C@@H]/2CCC(N)=O.[C-]#N.[Co+3]
inactive: activity change, negative = cytotoxicity [4] -1.32%
